From PubChem BioAssay AID2216 (Broad Institute, 2009)
The list shows a part of the results, in another mix than the full data. Some results for these compounds are left out of this collection, so the calls shown say nothing about other tests. Records with an inconclusive call do not appear. Activity calls are given as the source filed them.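 How the source made its calls: active means more than half of the replicate wells show a fall in the fluorescence ratio signal beyond about 16% (limit read from the data, passing the limit was not always enough); inconclusive means exactly half of the replicate wells pass the set limit; inactive means fewer than half of replicates pass the limit.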

The molecules below were run on Ran GTPase (GTP-bound) - importin-beta complex (assay: inhibitors of RanGTP-importin-beta interaction, primary screen, biochemical, FRET, CFP-Ran, YFP-importin-beta, homogeneous (AID 2216;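 further: 0% = DMSO wells and 100% = Ran loaded with GDP instead of GTP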)). Settings: cell-free CFP-Ran/YFP-importin-beta FRET ratio; hits give high values; concentration not given here.
In the case of O=C(NCC1(N2CCCCC2)CCCCC1)c1cc(F)c(F)cc1Cl, the inhibition is reported as inactive: -0.18%.
In the case of CCN1CCCC(OC(=O)C2(O)c3ccccc3C=Cc3ccccc32)C1 (configuration not stated), the inhibition is reported as inactive: 5.69%.
For Cc1cc(C(=O)NCC2(N3CCCCC3)CCCCC2)ccc1[N+](=O)[O-], the inhibition was inactive: 1.77%.
For O=C(NCC1(N2CCCCC2)CCCCC1)c1cccc(Br)c1, the inhibition was inactive: 4.71%.
For Cc1ccccc1C(=O)NCC1(N2CCCCC2)CCCCC1, the inhibition was inactive: 0.667%.
In the case of CN(C)c1ccc(C(=O)NCC2(N(C)C)CCCCC2)cc1, the inhibition is reported as inactive: 1.74%.
In the case of CN(C)C1CCCC1OC(=O)C(O)(c1ccccc1)c1ccccc1 (configuration not stated), the inhibition is reported as inactive: 6.11%.
CC(C)N1C(=O)CC2(CCN(CCOC(=O)C(O)(c3ccccc3)c3ccccc3)CC2)C1=O was tested, and the inhibition was inactive: 3.81%.
In the case of CCN(CC)CC(C)C(C)OC(=O)C(O)(c1ccccc1)c1ccccc1 (configuration not stated), the inhibition is reported as inactive: -0.635%.
For COc1cc(SC)ccc1C(=O)NCC1(N(C)C)CCCCC1, the inhibition was inactive: 5.33%.
For Cc1ccc(C(=O)NCC2(N3CCCCC3)CCCCC2)cc1, the inhibition was inactive: 7.58%.
For O=C(NCC1(N2CCCCC2)CCCCC1)c1cc([N+](=O)[O-])ccc1Cl, the inhibition was inactive: 1.19%.
With CN1[C@@H]2CC[C@H]1CC(OC(=O)C(O)(c1ccccc1)c1ccccc1)C2 (some centres not stated) the inhibition was inactive: 6.77%.
COc1ccc(Br)c(C(=O)NCC2(N3CCCCC3)CCCCC2)c1 was tested, and the inhibition was inactive: 7.26%.
CN(C)c1cccc(C(=O)NCC2(N(C)C)CCCCC2)c1 was tested, and the inhibition was inactive: 3.01%.
For CC(C)Oc1ccc(C(=O)NCC2(N(C)C)CCCCC2)cc1, the inhibition was inactive: 2.95%.
In the case of O=C(OC1CN2CCC1CC2)C(CO)(c1ccccc1)c1ccccc1 (configuration not stated), the inhibition is reported as inactive: 2.83%.
For COc1cccc(C(=O)NCC2(N3CCCCC3)CCCCC2)c1, the inhibition was inactive: -1.04%.
With COc1ccc(Cl)cc1C(=O)NCC1(N(C)C)CCCCC1 the inhibition was inactive: 3.81%.
In the case of O=C(NCC1(N2CCCCC2)CCCCC1)c1cccc(Cl)c1, the inhibition is reported as inactive: 1.68%.
With CN(C)C1(CNC(=O)c2ccc(Br)cc2)CCCCC1 the inhibition was inactive: 2.08%.
With COc1cc(C(=O)NCC2(N(C)C)CCCCC2)c([N+](=O)[O-])cc1OC the inhibition was inactive: 2.92%.
